# Apparent affinities of Ab-14 variants for a coronavirus HR2 peptide

Data: MIT Lincoln Laboratory AlphaSeq set, Engelhart et al. 2022, doi:10.1038/s41597-022-01779-4, as distributed in FLAb.

Target peptide (SARS-CoV-2 spike, HR2 region): PDVDLGDISGINAS

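The starting antibody came from a phage panning campaign against this peptide. In library AAYL49, one, two or three CDR residues were substituted; doubles and triples were drawn at random. The scFvs were displayed on barcoded MATa yeast, the peptide on MATalpha yeast. Mating (16 h, 30 °C) was followed by selection of diploids and sequencing of their barcodes. Read counts were normalised to the haploid input and turned into Kd by a linear fit to BCL2-family pairs of known affinity, for each replicate. Mating was done three times.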

Parent scFv Ab-14: VH joined to VL by the linker GGGGSGGGGSGGGGS. Changes lie in the heavy chain CDRs alone.
VH: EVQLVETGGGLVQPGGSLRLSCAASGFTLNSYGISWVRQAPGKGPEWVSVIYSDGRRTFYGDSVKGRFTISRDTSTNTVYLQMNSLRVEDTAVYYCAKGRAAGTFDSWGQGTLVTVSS
VL: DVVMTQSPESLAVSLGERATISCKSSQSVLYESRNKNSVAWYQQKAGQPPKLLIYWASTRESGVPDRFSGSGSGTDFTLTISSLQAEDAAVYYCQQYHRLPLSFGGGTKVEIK

The parent's heavy chain CDRs are GFTLNSYGIS, VIYSDGRRTFYGDSVK, GRAAGTFDS; each variant's own CDRs replace them letter for letter.
All variants listed here change T28 of the VH, counted from its first residue.
Numbers give log10(Kd / nM), so 0 is 1 nM and 3 is 1 µM. Smaller is tighter.
Replicates are averaged; those with no signal do not enter the mean.
A pair that was not seen in that replicate is written "ND"; this usually means weak binding, but a binder can also be missed.
Three control strains display no target. For library AAYL49, 15% of the pairings with them gave a signal, with a median of 4.06 and one signal in twenty below 2.83, so weak values seen in few replicates may be background.

With GFILNSYGIS / VKYSDGRRTFYGDSVK / ARAAGTFDS the result was ND, ND, ND. The variant GFPLNSYGIS / VIYSDGVFTFYGDSVK / GRAAGTFDS showed ND, ND, ND. With GFHLNSYGIS / VIYADGRRTFTGDSVK / GRAAGTFDS the result was 1.62, 1.42, 1.49 (mean 1.51). With GFKLNSYGIS / VIYHDGRRTFYGDMVK / GRAAGTFDS the result was 1.75, 1.69, 1.71 (mean 1.72). For GFCLNSYGIE / VIMSDGRRTFYGDSVK / GRAAGTFDS, the assay gave ND, ND, ND.

With GFWLLYYGIS / VIYSDGRRTFYGDSVK / GRAAGTFDS the result was 3.14, 2.63, ND (mean 2.88). The variant GFHLNSGGIS / VIYSDGRRTFYGDSVK / GRAPGTFDS showed 6.56, ND, ND. With GFQLNSYGIS / VIYSDGRRTFYGDSKK / GRAAGTFNS the result was ND, ND, ND. The variant GFILNSYGIS / VIYSDGRRTFYGDSVK / GRAAGTFQS gave 1.71, 2.08, 1.95 (mean 1.91). For GFRLNSYGIS / TIYSDGRRTFYGDSVK / GRAAGTFDS, the assay gave ND, ND, ND.

The variant GFRLNSYGIS / VIYSDGRRTFYGVSVK / GRAAGVFDS showed ND, ND, ND. The variant GFHLNSQGIS / VIYSDGRRTFYGDSVK / GRAAGTFDS gave 2.74, ND, 3.01 (mean 2.88). The variant GFFLNSYGIS / VITSDGRRTFYGDSVK / GRAAGTFDA gave ND, ND, 3.93. The variant GFLLFSYGIS / VIYSDGRRTFYGDSVK / GRAAGTWDS gave 4.60, 3.97, 3.88 (mean 4.15). The variant GFHYNSKGIS / VIYSDGRRTFYGDSVK / GRAAGTFDS gave ND, ND, ND.

The variant GFILNSYGIS / VIYSDGRRTFYADSVK / GRAAGTFDS gave 0.76, 0.97, 0.82 (mean 0.85). The variant GFILNSYGID / VIYSDGRRTFYLDSVK / GRAAGTFDS showed ND, ND, ND. The variant GFILNSYGIS / VIYSDGRRTFYGDSVK / GRAMHTFDS showed ND, ND, ND. For GFSLNSYGIS / VIYSDGRRTFYGDSVK / IRAAGTFSS, the assay gave ND, ND, ND. For GFHLNSYGIS / VIQSDGRRTFYGDSVK / GRAAGTFMS, the assay gave ND, 3.50, ND.

For GFPLNSYGIS / VIYSDGRRTFYGDSVK / GRAAGTNDS, the assay gave ND, ND, ND. The variant GFCLNSYGIS / VIYSDGRRQFYGDSVK / GRAFGTFDS gave 1.67, 2.34, 2.21 (mean 2.08). The variant GFHLNSYGIS / HIYSDGRRTFYGDSVK / GHAAGTFDS showed ND, ND, ND. The variant GFHLNSYGIS / VIYSDGRRTGYGDSVK / GRAAGTFDS gave 0.73, 1.11, 1.00 (mean 0.95). For GFFLNSYGIS / VIYSDGRRTFYGDSVK / GRAATTFHS, the assay gave ND, 3.08, 4.13 (mean 3.60).

The variant GFNLNSYGIS / VIYSDGMRTFYGDSVK / CRAAGTFDS showed 0.04, 0.39, 0.16 (mean 0.20). The variant GFLLNSYGIS / VIYSRYRRTFYGDSVK / GRAAGTFDS gave 5.17, 5.66, 5.12 (mean 5.32). With GFNLNYYGIS / VIYSDGRRTFYGDSNK / GRAAGTFDS the result was 4.57, ND, ND. The variant GFVLNSYGIS / VIYSDGRRTFYGDSVK / GAAAGTFAS showed ND, ND, 2.57. For GFVLNSYGIS / VIYSDGRRTFYMDSVK / PRAAGTFDS, the assay gave ND, ND, 3.71.

The first 2 variants above that were never detected:

Variant GFILNSYGIS / VKYSDGRRTFYGDSVK / ARAAGTFDS gave ND, ND, ND.
Variant GFPLNSYGIS / VIYSDGVFTFYGDSVK / GRAAGTFDS gave ND, ND, ND.